## scFv variants of Ab-14 (light chain) against a SARS-CoV-2 spike peptide

Target: peptide PDVDLGDISGINAS, taken from heptad repeat 2 (HR2) of SARS-CoV-2 spike.

Parent scFv Ab-14: VH joined to VL by a (GGGGS)3 linker. Changes lie in the light chain CDRs alone.
VH: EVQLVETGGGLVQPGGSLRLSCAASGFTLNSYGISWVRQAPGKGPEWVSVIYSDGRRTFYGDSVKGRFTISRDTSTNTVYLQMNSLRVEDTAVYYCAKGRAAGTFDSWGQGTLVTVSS
VL: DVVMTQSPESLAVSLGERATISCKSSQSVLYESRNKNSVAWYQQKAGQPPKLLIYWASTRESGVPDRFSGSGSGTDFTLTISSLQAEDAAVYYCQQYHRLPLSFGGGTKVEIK

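In library AAYL50, one, two or three CDR residues were substituted; doubles and triples were drawn at random. The assay is AlphaSeq: two haploid yeast populations carry antibody and antigen on their surface. After mating in shaken culture at 30 °C for 16 h, diploids were selected and their barcode pairs sequenced. Scores were corrected for input abundance and mapped to Kd with protein pairs of known affinity run in the same pool. The assay was run in three technical replicates.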

Positions count from residue 1 of the parent VL; L30A puts A in place of L.
Numbers give log10(Kd / nM), so 0 is 1 nM and 3 is 1 µM. Smaller is tighter.
Where no diploid with the target was found in that replicate, the entry reads "nd": below detection, most likely a poor binder, though not proof of it.
Three control strains display no target. For library AAYL50, 18% of the pairings with them gave a signal, with a median of 4.19 and one signal in twenty below 2.99, so weak values seen in few replicates may be background. For each scFv, signals with the empty controls are counted beside the result, with their mean in brackets.

changes | replicates, log10 nM | signal with controls
L30A N35D V39D | 5.28 / 4.04 / nd | 3 of 9 (5.24)
S58Y L100N S103F | nd / nd / nd | 0 of 9
K24H S38F P101N | 1.75 / 1.90 / 1.86 | 3 of 9 (4.08)
Q27M V39N Q95W | nd / nd / nd | 1 of 9 (3.57)
Y31V A40L Q96H | 3.45 / 2.61 / 2.05 | 2 of 9 (3.38)
Y31L W56M R99W | 1.66 / 1.62 / 1.89 | 1 of 9 (4.47)
K24E S33E E61G | 5.00 / nd / nd | 2 of 9 (4.34)
S25G L30M E61L | 1.51 / 1.46 / 1.59 | 2 of 9 (4.97)
S33G N35M W56K | 0.78 / 0.96 / 0.92 | 6 of 9 (4.96)
N35E S62G L102R | nd / nd / nd | 0 of 9
N35T T59F L102C | nd / nd / 4.65 | 1 of 9 (4.32)
W56F R99W | 3.04 / 3.04 / 3.53 | 0 of 9
N35P N37Q S103P | 3.92 / 4.65 / 5.15 | 7 of 9 (4.33)
Y31M E61K Y97W | nd / nd / nd | 1 of 9 (1.05)
Y31N W56F E61K | nd / 2.43 / nd | 0 of 9
E32S Q95A Y97E | nd / nd / 3.94 | 3 of 9 (5.02)
S33W V39E L102N | nd / nd / nd | 0 of 9
Q27P Y31G P101H | 0.66 / 0.59 / 0.61 | 3 of 9 (3.82)
S25N E32G E61Y | 0.60 / 0.86 / 0.74 | 1 of 9 (2.99)
R34W W56E S103I | 0.48 / 0.93 / 0.83 | 2 of 9 (2.96)
S58H Q96G H98R | 1.53 / 1.61 / 1.71 | 6 of 9 (4.34)
Q27R R99A L102W | nd / nd / nd | 4 of 9 (5.30)
S38M Q95A L100M | 3.60 / 3.03 / 2.68 | 0 of 9
L30K N37I L102P | nd / nd / nd | 3 of 9 (4.37)
E32A | 0.65 / 1.50 / 0.69 | 0 of 9
S28P A57L T59M | 3.82 / nd / nd | 3 of 9 (4.37)
K36E H98W P101A | 0.79 / 0.97 / 1.21 | 0 of 9
K24M | 1.43 / 1.71 / 1.62 | 3 of 9 (4.36)
S28M Q96C L100T | 1.05 / 0.96 / 1.42 | 1 of 9 (3.62)
S25F Q27R S38V | nd / 3.98 / nd | 0 of 9
V29K H98Y L102P | nd / nd / nd | 0 of 9
S38K T59E R60A | nd / nd / nd | 0 of 9
N37E R60C L100F | nd / 3.01 / nd | 0 of 9
L30W V39G R60V | 3.39 / 3.34 / 3.97 | 2 of 9 (5.56)
W56P Q95P L100W | nd / nd / nd | 0 of 9
S28R A57R L102G | nd / nd / 3.35 | 1 of 9 (4.29)

Excerpt, the first 3 entries:

changes,"replicates, log10 nM",signal with controls
L30A N35D V39D,5.28 / 4.04 / nd,3 of 9 (5.24)
S58Y L100N S103F,nd / nd / nd,0 of 9
K24H S38F P101N,1.75 / 1.90 / 1.86,3 of 9 (4.08)

Data: MIT Lincoln Laboratory AlphaSeq set, Engelhart et al. 2022, doi:10.1038/s41597-022-01779-4, as distributed in FLAb.